The numbers were not newly measured in patent publication US9394350B2, “HLA-A2 tumor associated antigen peptides and compositions” (OSE PHARMA INTERNATIONAL SA, priority 2003, dated 2016), which cites them from elsewhere.

Data set [1] has as its system PBMC obtained from healthy donors and cancer patients. As to conditions: primary in vitro induction in healthy donors and recall responses in cancer patients; cited from earlier work.
Data set [2] concerns patients with metastatic melanoma. The settings on record: 1 mg peptide in Montanide ISA 51 with IL-2 therapy, versus historical IL-2 therapy alone; cited from earlier work.

Turning to “HER-2/neu.369: wild-type version of analog HER-2/neu.369V2V9 used in EP-2101”, the “specific CTL responses using PBMC” value in data set [1] is “induced specific CTL responses”.

For the substance “IL-2: Interleukin-2; IL-2 therapy alone, historical comparison”, the clinical response rate in data set [2] is 15%.
